The target in test [1] is T1, Gastrin/cholecystokinin type B receptor (Homo sapiens, UniProt P32239).
T1 sequence (P32239 whole entry): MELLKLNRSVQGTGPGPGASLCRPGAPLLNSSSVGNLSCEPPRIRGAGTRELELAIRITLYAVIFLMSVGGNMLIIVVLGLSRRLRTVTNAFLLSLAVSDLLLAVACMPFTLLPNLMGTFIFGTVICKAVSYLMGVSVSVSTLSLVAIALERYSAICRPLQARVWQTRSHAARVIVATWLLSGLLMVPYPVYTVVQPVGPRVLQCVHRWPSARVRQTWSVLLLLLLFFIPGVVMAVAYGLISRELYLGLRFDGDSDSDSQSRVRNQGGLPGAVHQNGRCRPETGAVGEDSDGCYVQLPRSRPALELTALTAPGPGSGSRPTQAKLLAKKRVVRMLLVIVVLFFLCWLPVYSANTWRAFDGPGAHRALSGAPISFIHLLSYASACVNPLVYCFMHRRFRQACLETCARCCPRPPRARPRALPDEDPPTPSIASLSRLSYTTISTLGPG
Put plainly: Displacement of [125I-CCK] from wild-type human CCK2R expressed in CHO cells after 60 mins by scintillation counter.

Amino acid sequences for entries named in this document (tags omitted).
UniProt P32238, whole entry W326A: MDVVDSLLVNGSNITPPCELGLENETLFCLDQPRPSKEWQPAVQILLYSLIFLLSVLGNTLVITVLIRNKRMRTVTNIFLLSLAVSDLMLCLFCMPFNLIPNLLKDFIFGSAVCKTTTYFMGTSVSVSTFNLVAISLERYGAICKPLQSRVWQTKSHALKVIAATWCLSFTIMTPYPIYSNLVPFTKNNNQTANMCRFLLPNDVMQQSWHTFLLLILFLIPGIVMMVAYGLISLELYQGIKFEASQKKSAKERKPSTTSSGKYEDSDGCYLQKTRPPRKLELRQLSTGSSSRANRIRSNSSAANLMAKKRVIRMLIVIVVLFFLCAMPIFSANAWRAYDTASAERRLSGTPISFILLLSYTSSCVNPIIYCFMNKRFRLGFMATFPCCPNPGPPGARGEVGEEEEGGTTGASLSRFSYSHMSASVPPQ
UniProt P32238, whole entry: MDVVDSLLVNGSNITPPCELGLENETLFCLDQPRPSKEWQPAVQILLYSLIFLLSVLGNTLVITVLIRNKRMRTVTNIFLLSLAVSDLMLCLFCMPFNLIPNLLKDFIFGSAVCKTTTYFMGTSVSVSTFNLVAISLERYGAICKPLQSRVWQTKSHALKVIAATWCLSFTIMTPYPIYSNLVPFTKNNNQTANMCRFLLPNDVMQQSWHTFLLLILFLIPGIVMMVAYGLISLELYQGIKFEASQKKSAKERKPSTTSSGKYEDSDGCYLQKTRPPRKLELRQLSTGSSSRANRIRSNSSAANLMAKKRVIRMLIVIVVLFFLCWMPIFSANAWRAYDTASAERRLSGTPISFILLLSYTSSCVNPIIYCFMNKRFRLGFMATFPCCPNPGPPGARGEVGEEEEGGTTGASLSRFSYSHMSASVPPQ
UniProt P32238, whole entry L356H: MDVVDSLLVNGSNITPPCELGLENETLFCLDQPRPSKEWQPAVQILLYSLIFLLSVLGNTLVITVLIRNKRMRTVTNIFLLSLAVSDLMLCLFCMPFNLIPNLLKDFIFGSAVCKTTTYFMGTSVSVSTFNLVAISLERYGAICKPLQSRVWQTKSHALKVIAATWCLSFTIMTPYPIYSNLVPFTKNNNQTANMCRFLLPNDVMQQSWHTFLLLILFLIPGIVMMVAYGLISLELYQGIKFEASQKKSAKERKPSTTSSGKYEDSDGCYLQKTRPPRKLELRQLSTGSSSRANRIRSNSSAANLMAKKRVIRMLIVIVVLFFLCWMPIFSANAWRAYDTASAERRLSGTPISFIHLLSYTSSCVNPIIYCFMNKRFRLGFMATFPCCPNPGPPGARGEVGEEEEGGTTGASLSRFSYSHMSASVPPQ

Test [2] concerns the target T1, Gastrin/cholecystokinin type B receptor. Put plainly: Displacement of [125I-BDZ-2] from human CCK2R V3.28T, S3.29T mutant expressed in CHO cells after 60 mins by scintillation counter. (In general: Loss of bound radioactivity is the signal in a displacement assay; it reports binding, not function.)
For test [3] the target is unchanged. As to the kind of experiment: Displacement of [125I-CCK] from human CCK2R T2.61N mutant expressed in CHO cells after 60 mins by scintillation counter.
Test [4] shares this target. As to the kind of experiment: Displacement of [125I-BDZ-2] from human CCK2R V6.51I, Y6.52F mutant expressed in CHO cells after 60 mins by scintillation counter.
Test [5] has as its target Cholecystokinin receptor type A (Homo sapiens, UniProt P32238, W326A). Put plainly: Agonist activity at human CCK1R W6.48A mutant expressed in CHO cells assessed as intracellular calcium response by fluorescence analysis. For orientation: A change in cytosolic calcium serves as a functional read-out for many receptors and channels.
Test [6] deals with T1, Gastrin/cholecystokinin type B receptor. As to the kind of experiment: Displacement of [125I-CCK] from human CCK2R V6.51I, Y6.52F mutant expressed in CHO cells after 60 mins by scintillation counter.
The target is the same in test [7]. As to the kind of experiment: Agonist activity at human CCK2R H7.39L mutant expressed in CHO cells assessed as intracellular calcium response by fluorescence analysis.
The target is the same in test [8]. Put plainly: Agonist activity at human CCK2R V6.51I, Y6.52F mutant expressed in CHO cells assessed as intracellular calcium response by fluorescence analysis.
Test [9] concerns the target Cholecystokinin receptor type A (Homo sapiens, UniProt P32238). As to the kind of experiment: Displacement of [125I-BDZ-1] from wild-type human CCK1R expressed in CHO cells after 60 mins by scintillation counter.
The target in test [10] is Cholecystokinin receptor type A (Homo sapiens, UniProt P32238, L356H). Put plainly: Agonist activity at human CCK1R L7.39H mutant expressed in CHO cells assessed as intracellular calcium response by fluorescence analysis.

Our source for the Ki, IC50 and EC50 values is BindingDB's records for doi:10.1021/acs.jmedchem.5b01110 (Mayo Clinic, 2015).

A word on the Ki: it is the equilibrium dissociation constant of an inhibitor or competing ligand from its target. A lower Ki goes with a stronger hold on the target. For orientation: IC50 means the concentration that gives 50% inhibition. Low values mean greater potency, high ones weaker potency. The term EC50 denotes the concentration at which the effect is half-maximal.

`CC(C)N(Cc1ccccc1)C(=O)CN1C(=O)[C@@H](Cc2c[nH]c3ccccc23)c2nnc(-c3ccccc3)n2-c2ccccc21` [2-((4S)-4-((1H-indol-3-yl)methyl)-5-oxo-1-phenyl-4H-benzo[b][1,2,4]triazolo[4,3-d][1,4]diazepin-6(5H)-yl)-N-benzyl-N-isopropylacetamide]: the Ki in test [1] is < 1 µM. Besides, the IC50 in [2], in test [3], in test [4] and in test [6] was < 1 µM each time. The EC50 in test [5] was < 0.1 µM.
Regarding `Cc1cc(C)cc(C[C@H]2CCCCN2C(=O)CN2C(=O)[C@@H](Cc3n[nH]c4ccccc34)c3nnc(-c4ccccc4)n3-c3ccccc32)c1`, the IC50 in test [2], in test [3], in [4] and in [6] was < 1 µM each time. For the same molecule, the EC50 was < 1 µM in test [7], < 1 µM in [8] and < 0.1 µM in [10]. In test [9], the Ki was < 1 µM.
